We go through two molecules from patent publication US6060451A, “Thrombin inhibitors based on the amino acid sequence of hirudin” (The National Research Council of Canada, priority 1995, dated 2000).

The target of this experiment is human α-thrombin (Homo sapiens, UniProt P00734). The experiment is described as follows: Fluorogenic amidolytic assay of thrombin activity, hydrolysis of Tosyl-Gly-Pro-Arg-AMC (Table I).

In the case of `CC[C@H](C)[C@H](NC(=O)[C@H](CCC(=O)O)NC(=O)[C@H](CCC(=O)O)NC(=O)[C@H](Cc1ccccc1)NC(=O)[C@H](CC(=O)O)NC(=O)CNC(=O)[C@H](CC(=O)O)NC(=O)[C@H](CC(N)=O)NC(=O)[C@H](Cc1c[nH]cn1)NC(=O)[C@H](CO)NC(=O)[C@H](CCC(N)=O)NC(=O)[C@H]1CCCN1C(=O)[C@H](CCCNC(=N)N)NC(=O)[C@@H]1CCCN1C(=O)[C@@H](NC(C)=O)[C@@H](C)O)C(=O)N1CCC[C@H]1C(=O)N[C@@H](CCC(=O)O)C(=O)N[C@@H](CCC(=O)O)C(=O)N[C@@H](Cc1ccc(O)cc1)C(=O)N[C@@H](CC(C)C)C(=O)N[C@@H](CCC(N)=O)C(=O)O` [P54, [Thr^45, Arg^47, D-Pro^48]hirudin^45-65], the Ki (read-out: Human Ki, human α-thrombin mediated hydrolysis of Tosyl-Gly-Pro-Arg-AMC, mean of three determinations ± SEM, ni = not inhibited) was 72 ± 32 nM. For the molecule `CC[C@H](C)[C@H](NC(=O)[C@H](CCC(=O)O)NC(=O)[C@H](CCC(=O)O)NC(=O)[C@H](Cc1ccccc1)NC(=O)[C@H](CC(=O)O)NC(=O)CNC(=O)[C@H](CC(=O)O)NC(=O)[C@H](CC(N)=O)NC(=O)[C@H](Cc1c[nH]cn1)NC(=O)[C@H](CO)NC(=O)[C@H](CCC(N)=O)NC(=O)[C@@H]1CCCN1C(=O)[C@H](CCCNC(=N)N)NC(=O)[C@@H]1CCCN1C(=O)[C@@H](Cc1ccccc1)NC(C)=O)C(=O)N1CCC[C@H]1C(=O)N[C@@H](CCC(=O)O)C(=O)N[C@@H](CCC(=O)O)C(=O)N[C@@H](Cc1ccc(O)cc1)C(=O)N[C@@H](CC(C)C)C(=O)N[C@@H](CCC(N)=O)C(=O)O` [P53, [D-Phe^45, Arg^47]hirudin^45-65], where the note is “fluorogenic assay”, the Mode of inhibition entry is on record as “pure competitive inhibitor”.
